Source: ChEMBL document CHEMBL5370654, “Discovery of 3-Phenyl Indazole-Based Novel Chemokine-like Receptor 1 Antagonists for the Treatment of Psoriasis” (J Med Chem, 2023)
Active and inactive are the calls of the source. No cut-off for these calls is given here.

How the values were obtained:
Assay type in all cases: functional, organism-based
Mus musculus [1] = assay: Antiinflammatory activity against imiquimod-induced BALB/c mouse psoriasis model assessed as reduction in total psoriasis at 2 to 30 mg/kg, po qd measured on day 3; settings: dose 2-30 mg/kg, time 4.0 day
Mus musculus [2] = assay: Antiinflammatory activity against imiquimod-induced BALB/c mouse psoriasis model assessed as reduction in epidermal proliferation in mouse back skin at 30 mg/kg, po qd administered for 7 days by hematoxylin and eosin staining based analysis; settings: time 7.0 day
Mus musculus [3] = assay: Antiinflammatory activity against imiquimod-induced BALB/c mouse psoriasis model assessed as improvement in psoriasis area and severity index scores at 30 mg/kg, po qd measured on day 4; settings: time 4.0 day
Mus musculus [4] = assay: Antiinflammatory activity against imiquimod-induced BALB/c mouse psoriasis model assessed as improvement in skin conditions at 30 mg/kg, po qd measured on day 4; settings: time 4.0 day
Mus musculus [5] = assay: Antiinflammatory activity against imiquimod-induced BALB/c mouse psoriasis model assessed as psoriasis area and severity index scores at 30 mg/kg, po qd measured on day 6 to 7; settings: time 6-7 day

In the case of `C[C@@H](CC(=O)O)c1ccc(OCc2cc(F)c3c(-c4cc(Cl)c(CO)c(Cl)c4)nn(C4CCCC4)c3c2)cc1`, the Activity (Mus musculus [1]) is reported as “inactive”, the Activity (Mus musculus [2]) is reported as “Active” and the Activity (Mus musculus [3]) is reported as “Active”. For the same molecule, the Activity (Mus musculus [4]) was “Active” and the Activity (Mus musculus [5]) was “Active”.
